Test results published in article PMC5041959, “A high-content EMT screen identifies multiple receptor tyrosine kinase inhibitors with activity on TGFβ receptor” (Oncotarget, 2016).

Protein sequences, listed by entry. Tags and fused reporters are not part of them. Residues count along the entry.
UniProt P35968, 20-1356: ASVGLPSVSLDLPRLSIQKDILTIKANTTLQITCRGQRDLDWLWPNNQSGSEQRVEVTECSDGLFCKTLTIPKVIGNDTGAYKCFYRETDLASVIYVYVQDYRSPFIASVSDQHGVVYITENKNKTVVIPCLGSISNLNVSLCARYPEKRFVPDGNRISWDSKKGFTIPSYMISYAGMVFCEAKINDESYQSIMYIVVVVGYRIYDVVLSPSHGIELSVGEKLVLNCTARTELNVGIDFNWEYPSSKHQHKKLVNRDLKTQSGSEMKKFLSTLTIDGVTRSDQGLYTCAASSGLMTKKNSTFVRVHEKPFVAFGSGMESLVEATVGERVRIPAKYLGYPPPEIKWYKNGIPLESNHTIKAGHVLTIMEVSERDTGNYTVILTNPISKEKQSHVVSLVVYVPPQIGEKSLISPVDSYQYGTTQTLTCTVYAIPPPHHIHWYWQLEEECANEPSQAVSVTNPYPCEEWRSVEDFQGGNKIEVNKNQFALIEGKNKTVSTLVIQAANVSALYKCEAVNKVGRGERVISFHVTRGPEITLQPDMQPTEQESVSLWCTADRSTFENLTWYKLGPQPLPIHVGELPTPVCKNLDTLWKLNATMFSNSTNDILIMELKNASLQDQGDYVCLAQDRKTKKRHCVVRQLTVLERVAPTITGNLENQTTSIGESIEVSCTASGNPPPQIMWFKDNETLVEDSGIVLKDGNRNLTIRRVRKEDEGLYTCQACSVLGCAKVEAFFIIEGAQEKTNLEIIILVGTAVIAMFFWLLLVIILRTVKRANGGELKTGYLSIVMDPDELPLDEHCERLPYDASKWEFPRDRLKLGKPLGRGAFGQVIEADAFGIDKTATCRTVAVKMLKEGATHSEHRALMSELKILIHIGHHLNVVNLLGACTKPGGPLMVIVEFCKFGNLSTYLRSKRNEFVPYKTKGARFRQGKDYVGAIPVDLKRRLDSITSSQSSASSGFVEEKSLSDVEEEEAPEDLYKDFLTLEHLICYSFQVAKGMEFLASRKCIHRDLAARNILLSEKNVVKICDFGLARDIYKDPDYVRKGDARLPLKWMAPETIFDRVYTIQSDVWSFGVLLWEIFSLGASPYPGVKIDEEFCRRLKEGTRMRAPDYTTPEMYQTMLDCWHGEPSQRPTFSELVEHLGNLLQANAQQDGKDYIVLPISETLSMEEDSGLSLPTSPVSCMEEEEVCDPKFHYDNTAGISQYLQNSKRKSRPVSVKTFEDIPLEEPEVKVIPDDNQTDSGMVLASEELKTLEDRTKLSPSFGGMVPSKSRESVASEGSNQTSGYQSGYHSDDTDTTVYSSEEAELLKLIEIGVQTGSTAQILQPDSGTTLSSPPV

Target: VEGFR2 (Homo sapiens, UniProt P35968)
Test: Biochemical kinase profiling (33PanQinase radiometric assay)
Conditions: read-out: VEGFR2 IC50

With `Cc1cccc(-c2[nH]ncc2-c2ccc3ncccc3n2)n1` [RepSox] the IC50 was 264 nM.
